Results from PubChem BioAssay AID1347075 (National Center for Advancing Translational Sciences (NCATS), 2019).
Only a part is listed here, and it is no random draw. Results filed as inconclusive are left out. Calls of active or inactive are those of the source. Calls come from the whole dose curve; as a rule, active = well fitted cell-killing curve with a large enough effect; inconclusive = small, poorly fitted or top-dose-only effect, or effect the other way; inactive = flat fitted curve, though single readings scatter.
% is set by controls: 0 for no effect and ±100 for the full control effect.

Test: qHTS assay for MDR1-selective chemotherapeutics: Primary screen using the parental adenocarcinoma cell KB-3-1; note: nearly all actives have a fitted effect of over 60% in size
Settings: KB-3-1 viability, CellTiter-Glo ATP luminescence, 72 h; at 46.1 µM (top of the series)
Excerpt: A prime difficulty in effectively treating cancer is the development of cellular resistance to multiple structurally unrelated anticancer drugs, a phenomenon known as multidrug resistance (MDR). […] Numerous strategies to overcome P-gp-mediated MDR have been explored, including the design of drugs that evade recognition and efflux, and development of inhibitors to block efflux and restore drug accumulation. […] An alternative approach is to exploit resistance by identifying drugs that target MDR cells over the non-resistant parental cells from which they were selected. […] The development of MDR1-selective agents represents a new strategy for resolving multidrug resistance, as it remains a long-standing clinical challenge for cancer chemotherapy.
Our goal is to identify compounds that selectively kill P-gp-expressing MDR cells. We will identify MDR1-selective compounds by comparing toxicity of compounds in the screening library against parental, drug-naive (KB-3-1) adenocarcinoma cells as well as their drug-selected MDR sub-line (KB-V1). The differential toxicity of compounds against these two cell lines will be used to identify MDR1-selective compounds, whose cytotoxicity is potentiated, rather than diminished, by P-gp expression. This assay will be utilized to conduct a quantitative high-throughput screen (qHTS) in collaboration with the NIH Chemical Genomics Center to identify selective agents, and probe hits arising from the screen will be validated using secondary assays and characterized through a well-established follow-up research program. This screen was run against the entire NCGC library collection of about 400,000 compounds.
NIH Molecular Libraries Probe Production Network [MLPCN]
NIH Chemical Genomics Center [NCGC]
PI: Michael Gottesman PhD, National Cancer Institute, NIH
Briefly, 5 microL of media containing either KB-3-1 cells (columns 1-2, 4-48) are dispensed into Greiner white, treated solid-bottom 1536-well assay plates (media-only control is added to column 3). Compounds are then transferred via Kalypsys pin tool equipped with 1536-pin array (10 nL slotted pins, V&P Scientific, San Diego, CA). Following addition of compound, the plates are incubated at 37 degrees C for 72 hours. CellTiter-Glo (2.5 µL/well) is then added, and the plates are read in a ViewLux reader (Perkin-Elmer, clear luminescence filter, 1 second exposure, 1x binning) following a 10 minute incubation. All cells are dispensed in DMEM phenol-red free media containing 10% FBS.
Library plates were screened starting from the lowest and proceeding to the highest concentration. Vehicle-only plates, with DMSO being pin-transferred to columns 5-48, will be inserted uniformly at the beginning and the end of each library in order to monitor and record any shifts in the background, which can be affected by reagent dispensers or loss in enzyme activity over time. Screening data will be corrected, normalized, and concentration-effect relationships will be derived by using publicly-available NCGC, NCATS curve fitting algorithms (http://ncgc.nih.gov/pub/openhts).
In the case of Cc1cccc(C)c1OP(C)(N)=O (centres undefined), the activity change, negative = cytotoxic is reported as inactive: -7.69%.
In the case of O=[N+]([O-])c1ccc2c(c1)C=Nc1ccccc1O2, the activity change, negative = cytotoxic is reported as inactive: -1.34%.
In the case of O=[N+]([O-])c1cc([N+](=O)[O-])c(Nc2cccnc2)c([N+](=O)[O-])c1, the activity change, negative = cytotoxic is reported as inactive: -17.7%.
For COc1ccc(OP(C)(=O)Nc2cccc(F)c2)cc1 (centres undefined), the activity change, negative = cytotoxic was inactive: 15.7%.
In the case of Cc1cc(C)cc(OP(C)(N)=O)c1 (centres undefined), the activity change, negative = cytotoxic is reported as inactive: 0%.
In the case of CCOC(=O)c1ccc(NP(C)(=O)Oc2ccccc2)cc1 (centres undefined), the activity change, negative = cytotoxic is reported as inactive: 0%.
For Cc1ccc(NP(C)(=O)Oc2ccccc2)c(C)c1 (centres undefined), the activity change, negative = cytotoxic was inactive: -3.9%.
In the case of COc1ccccc1OP(C)(=O)Nc1ccc(C)cc1 (centres undefined), the activity change, negative = cytotoxic is reported as inactive: 11.1%.
In the case of CCN(CC)CCCOC(=O)C(O)(c1ccccc1)c1ccccc1, the activity change, negative = cytotoxic is reported as inactive: -11.7%.
With COc1ccccc1-c1ccccn1.O=[N+]([O-])c1cc([N+](=O)[O-])c(O)c([N+](=O)[O-])c1 the activity change, negative = cytotoxic was inactive: 6.06%.
In the case of Cc1cc(C)cc(OP(C)(=O)Nc2ccc(SC(F)(F)F)cc2)c1 (centres undefined), the activity change, negative = cytotoxic is reported as inactive: 3.26%.
With CCc1ccc(OP(C)(=O)N2CCN(c3ccc([N+](=O)[O-])cc3)CC2)cc1 (centres undefined) the activity change, negative = cytotoxic was inactive: -28.3%.
For CP(=O)(NC(=O)Nc1ccccc1)Oc1ccccc1 (centres undefined), the activity change, negative = cytotoxic was inactive: -1.39%.
In the case of CP(=O)(Oc1ccccc1)OC(c1ccccc1)C(F)(F)F (centres undefined), the activity change, negative = cytotoxic is reported as inactive: -2.87%.
In the case of CP(=O)(Nc1ccc(SC(F)(F)F)cc1)Oc1ccc(Cl)cc1 (centres undefined), the activity change, negative = cytotoxic is reported as inactive: -28.2%.
For Cc1cccc(C)c1OP(C)(=O)Nc1ccc(SC(F)(F)F)cc1 (centres undefined), the activity change, negative = cytotoxic was inactive: 8.83%.
With CP(=O)(Nc1ccccn1)Oc1ccc(Cl)cc1 (centres undefined) the activity change, negative = cytotoxic was inactive: -5.82%.
With CCOP(C)(=S)SCC(=O)NC(C)C(=O)O (centres undefined) the activity change, negative = cytotoxic was inactive: 23.6%.
In the case of O=[N+]([O-])c1cc([N+](=O)[O-])c(O)c([N+](=O)[O-])c1.c1ccc(Oc2ccncc2)cc1, the activity change, negative = cytotoxic is reported as inactive: 0.0931%.
For COc1ccccc1OP(C)(=O)Nc1ccccc1 (centres undefined), the activity change, negative = cytotoxic was inactive: 7.67%.
With CP(=O)(Nc1ccccc1Br)Oc1ccccc1 (centres undefined) the activity change, negative = cytotoxic was inactive: 9.77%.
For CP(=S)(Nn1cnnc1)Oc1ccccc1 (centres undefined), the activity change, negative = cytotoxic was inactive: 3.91%.
In the case of O=[N+]([O-])c1cc([N+](=O)[O-])c(Nc2nnnn2CCO)c([N+](=O)[O-])c1, the activity change, negative = cytotoxic is reported as inactive: 0.267%.
For CC1=C2N=C(C=C3N=C(C(C)=C4[N-][C@@](C)([C@@H]5N=C1[C@](C)(CCC(=O)NC[C@@H](C)OP(=O)([O-])O[C@H]1[C@@H](O)[C@@H](n6cnc7cc(C)c(C)cc76)O[C@@H]1CO)[C@H]5CC(N)=O)[C@@](C)(CC(N)=O)[C@@H]4CCC(N)=O)[C@@](C)(CC(N)=O)[C@@H]3CCC(N)=O)C(C)(C)[C@@H]2CCC(N)=O.[C-]#N.[Co+3], the activity change, negative = cytotoxic was inactive: -0.283%.
With CP(=O)(Nc1ccc(SC(F)(F)F)cc1)Oc1ccccc1 (centres undefined) the activity change, negative = cytotoxic was inactive: -11.6%.
For CCCOc1ccc(NP(C)(=O)Oc2ccc(Cl)cc2)cc1 (centres undefined), the activity change, negative = cytotoxic was inactive: -1.36%.
For COc1ccccc1OP(C)(=O)Nc1c(C)cccc1C (centres undefined), the activity change, negative = cytotoxic was inactive: -4.56%.
In the case of CN(Cc1cccnc1)C(=O)COc1ccc(Cl)c(Cl)c1.O=[N+]([O-])c1cc([N+](=O)[O-])c(O)c([N+](=O)[O-])c1, the activity change, negative = cytotoxic is reported as inactive: 0%.
In the case of O=[N+]([O-])c1cc([N+](=O)[O-])c(-n2nnc3ccccc32)c([N+](=O)[O-])c1, the activity change, negative = cytotoxic is reported as inactive: -16.1%.
In the case of Cc1nc2ccc3ccccc3c2s1.O=[N+]([O-])c1cc([N+](=O)[O-])c(O)c([N+](=O)[O-])c1, the activity change, negative = cytotoxic is reported as inactive: 14.1%.
With Cc1cc(C)cc(OP(C)(=O)Nc2ccc(C)cc2C)c1 (centres undefined) the activity change, negative = cytotoxic was inactive: 11.3%.
With COc1ccccc1OP(C)(=O)Nc1cccc(Br)c1 (centres undefined) the activity change, negative = cytotoxic was inactive: -23.7%.
In the case of CP(=O)(Nc1cccc(Br)c1)Oc1ccccc1 (centres undefined), the activity change, negative = cytotoxic is reported as inactive: -6.56%.
In the case of Cc1cc(C)cc(OP(C)(=O)Nc2ccccn2)c1 (centres undefined), the activity change, negative = cytotoxic is reported as inactive: 13.7%.
For Cc1ccc(C)c(NP(C)(=O)Oc2ccccc2)c1 (centres undefined), the activity change, negative = cytotoxic was inactive: -4.46%.
With CC1=NCCc2c1[nH]c1ccccc21.O=[N+]([O-])c1cc([N+](=O)[O-])c(O)c([N+](=O)[O-])c1 the activity change, negative = cytotoxic was inactive: 9.8%.
In the case of COc1ccc(OP(C)(=O)Nc2ccc(SC(F)(F)F)cc2)cc1 (centres undefined), the activity change, negative = cytotoxic is reported as inactive: 1.35%.
In the case of CCOC(=O)c1ccc(NP(C)(=O)Oc2ccc(F)cc2)cc1 (centres undefined), the activity change, negative = cytotoxic is reported as inactive: -3.19%.
With CCCCCOc1ccc(NP(C)(=O)Oc2ccc(Cl)cc2Cl)cc1 (centres undefined) the activity change, negative = cytotoxic was inactive: 0%.
